Experimental data from patent publication US9630961B2, “Arginine methyltransferase inhibitors and uses thereof” (Epizyme, Inc., priority 2013, dated 2017).
pIC50: −log10 of the molar value.

By UniProt entry, the sequences of proteins in these tests, tags left out. Chains listed by the source or under a name are the forms on record and can include a tag or linker. Residues count along the entry.
UniProt Q99873, 1-371 with tags or gaps: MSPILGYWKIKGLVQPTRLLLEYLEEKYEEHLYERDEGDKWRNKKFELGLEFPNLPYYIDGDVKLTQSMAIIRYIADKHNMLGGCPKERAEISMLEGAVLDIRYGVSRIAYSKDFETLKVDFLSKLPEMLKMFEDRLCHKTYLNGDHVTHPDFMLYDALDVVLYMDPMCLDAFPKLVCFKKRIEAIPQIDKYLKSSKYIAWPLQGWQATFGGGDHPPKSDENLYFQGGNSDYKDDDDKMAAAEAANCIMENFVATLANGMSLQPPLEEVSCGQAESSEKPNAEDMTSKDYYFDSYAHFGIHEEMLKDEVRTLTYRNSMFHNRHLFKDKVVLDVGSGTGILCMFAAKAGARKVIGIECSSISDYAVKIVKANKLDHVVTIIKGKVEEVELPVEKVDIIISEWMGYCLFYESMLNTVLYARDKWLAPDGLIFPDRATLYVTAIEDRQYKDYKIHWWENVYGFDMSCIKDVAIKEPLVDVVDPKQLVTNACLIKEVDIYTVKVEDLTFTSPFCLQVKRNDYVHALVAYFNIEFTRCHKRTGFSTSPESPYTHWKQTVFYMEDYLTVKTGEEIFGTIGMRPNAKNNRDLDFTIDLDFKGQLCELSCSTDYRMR

Molecular target: PRMT1 (Homo sapiens, UniProt Q99873)
Test: PRMT1 Biochemical Assay (3H-SAM Flashplate, peptide substrate)
Details: read-out: Biochemical IC50 PRMT1; 30 min preincubation, room temperature
Description: S-adenosylmethionine (SAM), S-adenosylhomocysteine (SAH), bicine, Tween20, dimethylsulfoxide (DMSO), bovine skin gelatin (BSG), and Tris(2-carboxyethyl)phosphine hydrochloride solution (TCEP) were purchased from Sigma-Aldrich at the highest level of purity possible. ^3H-SAM was purchase from American Radiolabeled Chemicals with a specific activity of 80 Ci/mmol. 384-well streptavidin Flashplates were purchased from PerkinElmer.
Peptide representative of human histone H4 residues 36-50 was synthesized with an N-terminal linker-affinity tag motif and a C-terminal amide cap by 21st Century Biochemicals. The peptide was purified by high-performance liquid chromatography (HPLC) to greater than 95% purity and confirmed by liquid chromatography mass spectrometry (LC-MS). The sequence was Biot-Ahx-RLARRGGVKRISGLI-amide (SEQ ID NO.: 1).
Full-length human PRMT1 isoform 1 (NM_001536.5) transcript clone was amplified from an HEK 293 cDNA library, incorporating flanking 5′ sequence encoding a FLAG tag (DYKDDDDK) (SEQ ID NO.:2) fused directly to Met 1 of PRMT1. The amplified gene was subcloned into pFastBacI (Life Technologies) modified to encode an N-terminal GST tag and a TEV cleavage sequence ([…] […] […] […]) (SEQ ID NO.:3) fused to Asp of the Flag tag of PRMT1.
Recombinant baculovirus were generated according to Bac-to-Bac kit instructions (Life Technologies). […]

SMILES	pIC50
CNCCN(C)Cc1c[nH]nc1-c1cncnc1	6.00 to 7.00
CNCCN(C)Cc1c[nH]nc1-c1csc2ccccc12	> 7.00
